# Patent US20210275640A1, “METHODS FOR ENHANCING PERMEABILITY TO BLOOD-BRAIN BARRIER, AND USES THEREOF” (ACADEMIA SINICA, priority 2014, published 2021)
# Conditions: 40× higher VEGF dose
substance,measurement,value
vascular endothelial growth factor [VEGF],"Brain concentration ratio, 200 vs. 5 ng/kg dose",4 ×
